Tested on: OR6 cells
Test: Secondary assay cell viability (CellTiter-Glo)
Conditions: 48 hours

For CC[C@H](C)C(=O)O[C@H]1C[C@@H](C)C=C2C=C[C@H](C)[C@H](CC[C@@H]3C[C@@H](O)CC(=O)O3)[C@H]21 [Lovastatin, lovastatin], the “cytotoxicity (in words)” value was “significantly cytotoxic at 10, 50, and 100 μM”.

Source: US20120094939A1, “ANTI-VIRAL COMPOUNDS, COMPOSITIONS AND METHODS” (priority 2007, published 2012)
